Values quoted from earlier work, collected in patent US7632837B2, “Bicyclic heterocycles as cannabinoid-1 receptor modulators” (Bristol-Myers Squibb Company, priority 2005, dated 2009).

Conditions: chronic administration for two weeks

**Q.** With `Cc1c(C(=O)NN2CCCCC2)nn(-c2ccc(Cl)cc2Cl)c1-c1ccc(I)cc1` [AM-251] as the compound, how does the adipose tissue mass read?
**A.** decreased adipose tissue mass
